Reference: patent publication US10894038B2, “Indolizine derivatives, composition and methods of use” (Shanghai Fochon Pharmaceutical Co., Ltd., priority 2015, dated 2021)

Amino acid sequences for entries named in this document (tags omitted).
UniProt Q96S37, whole entry: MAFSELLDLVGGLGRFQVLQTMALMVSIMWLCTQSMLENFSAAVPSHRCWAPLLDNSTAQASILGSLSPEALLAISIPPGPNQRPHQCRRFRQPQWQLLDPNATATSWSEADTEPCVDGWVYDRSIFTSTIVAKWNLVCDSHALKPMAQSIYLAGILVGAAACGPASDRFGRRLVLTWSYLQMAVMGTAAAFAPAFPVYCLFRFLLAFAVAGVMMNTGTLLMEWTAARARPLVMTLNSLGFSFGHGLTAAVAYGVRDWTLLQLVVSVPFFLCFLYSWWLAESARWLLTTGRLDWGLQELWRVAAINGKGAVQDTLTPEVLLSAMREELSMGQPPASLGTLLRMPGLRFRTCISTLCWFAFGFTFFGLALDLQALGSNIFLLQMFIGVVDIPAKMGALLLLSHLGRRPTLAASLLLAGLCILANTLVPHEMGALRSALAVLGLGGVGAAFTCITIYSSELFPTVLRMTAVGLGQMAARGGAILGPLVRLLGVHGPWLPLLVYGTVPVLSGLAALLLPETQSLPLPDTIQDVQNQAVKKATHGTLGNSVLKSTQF

Target: URAT1 (Homo sapiens (Human), UniProt Q96S37)
Assay: URAT1 in vitro inhibition activity, Method B (14C-uric acid uptake in HEK293-URAT1 cells)
Conditions: 5.0 μmol/L 14C-uric acid, 2 min uptake
Procedure: HEK293-URAT1 cell Lines were donated by Japan Fuji Biomedical Research Institute. Negative control cell of HEK293 (MOCK cells) which was transfected with pcDNA3.1 empty vector. HEK293-URAT1 cell lines and MOCK cell lines were cultured in complete growth medium consisting of DMEM supplemented with 10% FBS, penicillin and streptomycin.
Preparation of working solution: Each stock solutions was diluted to different concentrations (6, 20, 60, 200 and 600 μmol/L) with DMSO as 200× working solution, which was then diluted to 2×compound working solution with HBSS (Cl^− free) buffer. […]
HER293-URAT1 and MOCK cells were seeded onto 24-well plates at the density of 1.5×10^6 cells per well. […] 400 μL NaOH (0.1 mmol/L) was added to lyse the cells and the cell lysate was collected to scintillation vials, and 3 ml scintillant (Aquasol-2, PerkinElmer) was added and after mixing completely, the radioactivity was counted by Tri-Carb 2910TR liquid scintillation counter. […] Inhibition % data were calculated using the formula: Inhibition=[100×(U−U0)/(Uc−U0)]%, and analyzed using Prism5 software. […]
Uc: Average of signals of radiolabeled substrate. The half inhibition concentration of the tested compounds to URAT1 were analyzed using Prism 5 software.

N#Cc1ccc(-c2cnccc2SC2(C(=O)O)CCC2)n2ccc(Cl)c12
IC50: 34 nM
